Antibody variant affinities, Ab-14 light chain, assay 1

Data: MIT Lincoln Laboratory AlphaSeq set, Engelhart et al. 2022, doi:10.1038/s41597-022-01779-4, as distributed in FLAb.

The target is the same throughout: PDVDLGDISGINAS, from the HR2 region of SARS-CoV-2 spike.

Each scFv is VH, a (GGGGS)3 linker, VL, as in the parent Ab-14, and differs from it in the CDRs of the light chain only.
VH: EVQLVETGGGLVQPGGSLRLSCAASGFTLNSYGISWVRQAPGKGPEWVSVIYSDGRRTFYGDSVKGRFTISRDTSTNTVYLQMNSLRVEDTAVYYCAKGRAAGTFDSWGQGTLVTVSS
VL: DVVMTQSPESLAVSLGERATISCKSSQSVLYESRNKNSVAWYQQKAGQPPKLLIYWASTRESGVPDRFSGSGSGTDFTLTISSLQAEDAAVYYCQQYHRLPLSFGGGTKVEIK

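The parent was found by panning a naive human phage display library on the peptide. Variants in AAYL50 differ from the parent at up to three CDR positions; double and triple changes were sampled at random. The scFvs were displayed on barcoded MATa yeast, the peptide on MATalpha yeast. Binding brings cells together so that they mate, and sequencing counts the barcode pairs among the diploids. Read counts were normalised to the haploid input and turned into Kd by a linear fit to BCL2-family pairs of known affinity, for each replicate. Mating was done three times.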

Substitutions are numbered in sequence along the VL above, starting at 1 (not Kabat). Numbers give log10(Kd / nM), so 0 is 1 nM and 3 is 1 µM. Smaller is tighter. Where no diploid with the target was found in that replicate, the entry reads "nd": below detection, most likely a poor binder, though not proof of it. As a blank, each scFv also met three strains without target: over library AAYL50, 18% of these pairings were detected, typically at 4.19 and seldom below 2.99. Also given: how often the same scFv was detected with the empty control strains, with their mean in brackets. In this assay the parent's reference entry averaged 0.65; its copy inside this library read 1.68.

{"changes": "S28C/R60P/E61Q", "log10 Kd, replicates": "3.22 nd nd", "signal with controls": "0 of 9"}
{"changes": "S25F/V29Q/A57M", "log10 Kd, replicates": "0.91 1.06 1.08", "signal with controls": "4 of 9 (4.59)"}
{"changes": "L30R/K36N/E61F", "log10 Kd, replicates": "1.65 1.71 1.77", "signal with controls": "6 of 9 (4.44)"}
{"changes": "S28Y/A57H/P101R", "log10 Kd, replicates": "5.26 nd 4.98", "signal with controls": "1 of 9 (2.81)"}
{"changes": "E32N/R60W/Q95F", "log10 Kd, replicates": "nd nd nd", "signal with controls": "0 of 9"}
{"changes": "A40K/R60H/L102E", "log10 Kd, replicates": "nd 3.69 4.72", "signal with controls": "8 of 9 (4.36)"}
{"changes": "K24C/S26W/L100Y", "log10 Kd, replicates": "3.57 5.68 nd", "signal with controls": "4 of 9 (4.57)"}
{"changes": "V29H/A40K/Y97M", "log10 Kd, replicates": "nd 2.92 nd", "signal with controls": "1 of 9 (3.31)"}
{"changes": "W56I/T59M", "log10 Kd, replicates": "nd nd nd", "signal with controls": "1 of 9 (4.75)"}
{"changes": "E32D/Y97W/L100H", "log10 Kd, replicates": "2.40 2.08 2.63", "signal with controls": "1 of 9 (4.63)"}
{"changes": "S25L/L30D/R99C", "log10 Kd, replicates": "0.18 0.44 0.19", "signal with controls": "4 of 9 (4.72)"}
{"changes": "L30Y/E32N/Q96F", "log10 Kd, replicates": "1.55 1.74 1.65", "signal with controls": "1 of 9 (3.36)"}
{"changes": "N37K/S58A/S103P", "log10 Kd, replicates": "nd nd nd", "signal with controls": "0 of 9"}
{"changes": "S25W/L30A/Y97E", "log10 Kd, replicates": "1.19 1.40 1.24", "signal with controls": "1 of 9 (6.00)"}
{"changes": "R34D/S62T/P101I", "log10 Kd, replicates": "nd nd nd", "signal with controls": "0 of 9"}
{"changes": "L30G/N37A/Q96A", "log10 Kd, replicates": "2.05 2.60 1.74", "signal with controls": "5 of 9 (3.78)"}
{"changes": "S62A/Y97A/H98K", "log10 Kd, replicates": "3.49 nd nd", "signal with controls": "2 of 9 (3.84)"}
{"changes": "V29M/S58A/Q96H", "log10 Kd, replicates": "nd 2.68 nd", "signal with controls": "0 of 9"}
{"changes": "S38D/W56G/Y97A", "log10 Kd, replicates": "1.92 1.51 1.80", "signal with controls": "0 of 9"}
{"changes": "S33C/R34I/R60K", "log10 Kd, replicates": "nd 4.88 nd", "signal with controls": "1 of 9 (4.04)"}
{"changes": "S25I/A57W/P101A", "log10 Kd, replicates": "nd 2.90 nd", "signal with controls": "3 of 9 (4.31)"}
{"changes": "S28D/V29I/L102C", "log10 Kd, replicates": "1.85 nd 1.21", "signal with controls": "0 of 9"}
{"changes": "N35H/P101L/L102N", "log10 Kd, replicates": "nd nd nd", "signal with controls": "2 of 9 (3.30)"}

2 of these entries, quoted again:

{"changes": "L30Y/E32N/Q96F", "log10 Kd, replicates": "1.55 1.74 1.65", "signal with controls": "1 of 9 (3.36)"}
{"changes": "E32N/R60W/Q95F", "log10 Kd, replicates": "nd nd nd", "signal with controls": "0 of 9"}